Assay results taken from patent EP4806909A1, “GLP-1 COMPOUND, AND PREPARATION METHOD THEREFOR AND USE THEREOF” (Shenzhen Salubris Pharmaceuticals Co., Ltd., priority 2023, dated 2025).

Protein sequences, listed by entry. Tags and fused reporters are not part of them. Residues count along the entry.
UniProt P43220, 24-463, species assumed: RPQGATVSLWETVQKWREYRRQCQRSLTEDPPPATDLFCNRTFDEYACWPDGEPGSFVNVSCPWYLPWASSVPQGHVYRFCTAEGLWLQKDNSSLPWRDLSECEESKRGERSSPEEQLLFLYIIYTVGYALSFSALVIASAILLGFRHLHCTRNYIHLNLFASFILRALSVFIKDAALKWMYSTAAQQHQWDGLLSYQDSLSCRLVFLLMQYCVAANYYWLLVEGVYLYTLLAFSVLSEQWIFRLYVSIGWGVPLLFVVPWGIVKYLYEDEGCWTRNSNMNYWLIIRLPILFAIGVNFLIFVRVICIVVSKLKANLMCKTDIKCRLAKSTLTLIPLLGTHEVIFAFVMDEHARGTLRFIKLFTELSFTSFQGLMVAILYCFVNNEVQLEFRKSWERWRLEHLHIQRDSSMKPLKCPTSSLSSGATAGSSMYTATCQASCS

Columns and labels:
GLP-1 receptor = molecular target: T1, GLP-1 receptor (Homo sapiens, UniProt P43220); experiment: GLP-1 activity assay (cAMP HTRF); format: cell-based; conditions: U20S-GLP-1R stable transfected cell line, 30 minutes at 37°C
T1 construct: expressed in transfected cells
Description: The agonistic effect of the test substance on the GLP-1 receptor was determined using a U20S-GLP-1R stable transfected cell line and a HTRF detection method.
• 1. According to the experimental procedure of the cAMP-Gs Dynamic HTRF kit, the 5x Stimulation buffer (SB) provided in the kit was diluted to 1xSB with ddH2O. IBMX was added to the 1xSB solution to a final concentration of 500 µM to prevent degradation of cAMP. Then, a working solution of the test substance was prepared using 1xSB and subjected to a series of gradient dilutions. • 2. U2OS-GLP-1R cells were digested and collected. After resuspending and counting, the cell density was diluted to 2x10^6 cells/mL using 1xSB solution. Then, 5 µL per well was seeded into a 384-well cell culture plate, resulting in 10,000 cells per well. • 3. The test substances were added at different concentrations into the corresponding cell wells at 5 µL per well, and incubated in a 37°C incubator for 30 minutes. • 4. According to the steps provided by the cAMP-Gs Dynamic HTRF kit, cAMP standard solutions of different concentrations were prepared and added into the 384-well plate. • 5. The cAMP d2 reagent and Eu Cryptate antibody provided in the kit were diluted to 1x using Lysis & Detection Buffer. Then, d2 and Eu solutions were added to the 384-well plate, 5 µL each well. After incubation at room temperature for 2 hours, the plate was read using the HTRF module (665/620 nm) of a microplate reader, and experimental data was collected. • 6. A curve was plotted using the signal value versus the compound concentration. Curve fitting and EC50 calculation were performed using nonlinear regression of GraphPad Prism software. […] Table 2: GLP-1 Activity of the compounds

[1] = Pharmacokinetic experiment in rats; format: in vivo; conditions: rat, plasma; SD rats, male, intravenous, 0.2 mg/kg, sampling to 72 hours
Description: Dulbecco's phosphate buffered saline (DPBS) (Batch No.: F2326001, Shanghai Aladdin Biochemical Technology Co., Ltd.). LC-MS instrument (Thermo TSQ Altis Plus).
SD rats: Male, 180-250g, purchased from Guangdong Vital River Laboratory Animal Technology Co., Ltd.
The test sample powder was accurately weighed and completely dissolved in Dulbecco's phosphate buffered saline free of Ca^2+/Mg^2+, mixed well to obtain a 0.1 mg/mL solution, and administered intravenously at a dose of 2 mL/kg.
After intravenous administration to the rats, approximately 200 µL of venous blood was collected into EDTA-K2 anticoagulant-coated EP tubes pre-dose and post-dose at 0, 0.5, 2, 5, 24, 48, and 72 hours . The blood was centrifuged at 12,000 rpm for 2 minutes. The plasma was collected and stored frozen at -20°C until analysis.
A certain amount of the test sample was accurately weighed and dissolved in DMSO to prepare a 2 mg/mL stock solution. An appropriate amount of the compound stock solution was accurately pipetted and diluted with an acetonitrile-aqueous solution (ACN:H2O=1:1) to prepare a series of standard solutions. […]
After determining the plasma drug concentration by LC-MS, the pharmacokinetic parameters in rats post-administration were calculated using a non-compartmental model with WinNonlin 6.1 software.

[2] = Determination of conversion half-life; format: physicochemical; conditions: PBS buffer pH = 7.4, 200 µM, incubated at 37°C, within 2 weeks
Description: A peptide stock solution was prepared by dissolving the test sample in a PBS buffer to a target concentration of 200 µM, wherein the PBS buffer was Dulbecco's phosphate-buffered saline free of Ca^2+ and Mg^2+, pH = 7.4. The pH of the peptide stock solution was adjusted to 7.4 using HCl or NaOH. The sample was transferred to HPLC vials. The vials were capped tightly to prevent evaporation. The HPLC vials were incubated at 37°C, and samples were taken at various time points within 2 weeks, flash-frozen at -80°C, and stored at -20°C until analysis. Samples were analyzed using LC/MS or liquid chromatography. The conversion half-life of the test sample was calculated based on the reduction in the amount of the test sample prototype.

Row | EC50 (GLP-1 receptor) | AUC(0-t) [1] | in vitro conversion half-life [2] | Structure (SMILES)
1 | 90.3 nM |  |  | CC[C@H](C)[C@H](NC(=O)[C@H](Cc1ccccc1)NC(=O)[C@H](CCC(=O)O)NC(=O)[C@H](CCCCNC(=O)COCCOCCNC(=O)COCCOCCNC(=O)CC[C@H](NC(=O)CCCCCCCCCCCCCCCCC(=O)O)C(=O)O)NC(=O)[C@H](C)NC(=O)[C@H](C)NC(=O)[C@H](CCC(N)=O)NC(=O)CNC(=O)[C@H](CCC(=O)O)NC(=O)[C@H](CC(C)C)NC(=O)[C@H](Cc1ccc(O)cc1)NC(=O)[C@H](CO)NC(=O)[C@H](CO)NC(=O)[C@@H](NC(=O)[C@H](CC(=O)O)NC(=O)[C@H](CO)NC(=O)[C@@H](NC(=O)[C@H](Cc1ccccc1)NC(=O)[C@@H](NC(=O)CNC(=O)[C@H](CCC(=O)O)NC(=O)C(C)(C)NC(=O)[C@H](Cc1c[nH]cn1)NC(=O)CN(CCNC(=O)CC[C@H](NC(=O)CCCCCCCCCCCCCCC(=O)O)C(=O)O)C(=O)CN)[C@@H](C)O)[C@@H](C)O)C(C)C)C(=O)N[C@@H](C)C(=O)N[C@@H](Cc1c[nH]c2ccccc12)C(=O)N[C@@H](CC(C)C)C(=O)N[C@H](C(=O)N[C@@H](CCCNC(=N)N)C(=O)NCC(=O)N[C@@H](CCCNC(=N)N)C(=O)NCC(=O)O)C(C)C [Comparative Example 1, reference compound]
2 | 15 nM | 81500 ng·h/mL |  | CC[C@H](C)[C@H](NC(=O)[C@H](Cc1ccccc1)NC(=O)[C@H](CCC(=O)O)NC(=O)[C@H](CCCCNC(=O)COCCOCCNC(=O)COCCOCCNC(=O)CC[C@H](NC(=O)CCCCCCCCCCCCCCCCC(=O)O)C(=O)O)NC(=O)[C@H](C)NC(=O)[C@H](C)NC(=O)[C@H](CCC(N)=O)NC(=O)CNC(=O)[C@H](CCC(=O)O)NC(=O)[C@H](CC(C)C)NC(=O)[C@H](Cc1ccc(O)cc1)NC(=O)[C@H](CO)NC(=O)[C@H](CO)NC(=O)[C@@H](NC(=O)[C@H](CC(=O)O)NC(=O)[C@H](CO)NC(=O)[C@@H](NC(=O)[C@H](Cc1ccccc1)NC(=O)[C@@H](NC(=O)CNC(=O)[C@H](CCC(=O)O)NC(=O)C(C)(C)NC(=O)[C@H](Cc1c[nH]cn1)NC(=O)CN(CCOCCNC(=O)CC[C@H](NC(=O)CCCCCCCCCCCCCCC(=O)O)C(=O)O)C(=O)CN)[C@@H](C)O)[C@@H](C)O)C(C)C)C(=O)N[C@@H](C)C(=O)N[C@@H](Cc1c[nH]c2ccccc12)C(=O)N[C@@H](CC(C)C)C(=O)N[C@H](C(=O)N[C@@H](CCCNC(=N)N)C(=O)NCC(=O)N[C@@H](CCCNC(=N)N)C(=O)NCC(=O)O)C(C)C [Example 5]
3 | 14.3 nM | 98300 ng·h/mL |  | CC[C@H](C)[C@H](NC(=O)[C@H](Cc1ccccc1)NC(=O)[C@H](CCC(=O)O)NC(=O)[C@H](CCCCNC(=O)COCCOCCNC(=O)COCCOCCNC(=O)CC[C@H](NC(=O)CCCCCCCCCCCCCCCCC(=O)O)C(=O)O)NC(=O)[C@H](C)NC(=O)[C@H](C)NC(=O)[C@H](CCC(N)=O)NC(=O)CNC(=O)[C@H](CCC(=O)O)NC(=O)[C@H](CC(C)C)NC(=O)[C@H](Cc1ccc(O)cc1)NC(=O)[C@H](CO)NC(=O)[C@H](CO)NC(=O)[C@@H](NC(=O)[C@H](CC(=O)O)NC(=O)[C@H](CO)NC(=O)[C@@H](NC(=O)[C@H](Cc1ccccc1)NC(=O)[C@@H](NC(=O)CNC(=O)[C@H](CCC(=O)O)NC(=O)C(C)(C)NC(=O)[C@H](Cc1c[nH]cn1)NC(=O)CN(CCOCCNC(=O)C[C@H](NC(=O)CCCCCCCCCCCCCCC(=O)O)C(=O)O)C(=O)CN)[C@@H](C)O)[C@@H](C)O)C(C)C)C(=O)N[C@@H](C)C(=O)N[C@@H](Cc1c[nH]c2ccccc12)C(=O)N[C@@H](CC(C)C)C(=O)N[C@H](C(=O)N[C@@H](CCCNC(=N)N)C(=O)NCC(=O)N[C@@H](CCCNC(=N)N)C(=O)NCC(=O)O)C(C)C [Example 6]
4 | 35.8 nM |  | not less than 50 h | CC[C@H](C)[C@H](NC(=O)[C@H](Cc1ccccc1)NC(=O)[C@H](CCC(=O)O)NC(=O)[C@H](CCCCNC(=O)COCCOCCNC(=O)COCCOCCNC(=O)CC[C@H](NC(=O)CCCCCCCCCCCCCCCCC(=O)O)C(=O)O)NC(=O)[C@H](C)NC(=O)[C@H](C)NC(=O)[C@H](CCC(N)=O)NC(=O)CNC(=O)[C@H](CCC(=O)O)NC(=O)[C@H](CC(C)C)NC(=O)[C@H](Cc1ccc(O)cc1)NC(=O)[C@H](CO)NC(=O)[C@H](CO)NC(=O)[C@@H](NC(=O)[C@H](CC(=O)O)NC(=O)[C@H](CO)NC(=O)[C@@H](NC(=O)[C@H](Cc1ccccc1)NC(=O)[C@@H](NC(=O)CNC(=O)[C@H](CCC(=O)O)NC(=O)C(C)(C)NC(=O)[C@H](Cc1c[nH]cn1)NC(=O)[C@H](CCCCNC(=O)CC[C@H](NC(=O)CCCCCCCCCCCCCCC(=O)O)C(=O)O)N(C)C(=O)CN)[C@@H](C)O)[C@@H](C)O)C(C)C)C(=O)N[C@@H](C)C(=O)N[C@@H](Cc1c[nH]c2ccccc12)C(=O)N[C@@H](CC(C)C)C(=O)N[C@H](C(=O)N[C@@H](CCCNC(=N)N)C(=O)NCC(=O)N[C@@H](CCCNC(=N)N)C(=O)NCC(=O)O)C(C)C [Example 9]
5 | 36.1 nM |  | not less than 50 h | CC[C@H](C)[C@H](NC(=O)[C@H](Cc1ccccc1)NC(=O)[C@H](CCC(=O)O)NC(=O)[C@H](CCCCNC(=O)COCCOCCNC(=O)COCCOCCNC(=O)CC[C@H](NC(=O)CCCCCCCCCCCCCCCCC(=O)O)C(=O)O)NC(=O)[C@H](C)NC(=O)[C@H](C)NC(=O)[C@H](CCC(N)=O)NC(=O)CNC(=O)[C@H](CCC(=O)O)NC(=O)[C@H](CC(C)C)NC(=O)[C@H](Cc1ccc(O)cc1)NC(=O)[C@H](CO)NC(=O)[C@H](CO)NC(=O)[C@@H](NC(=O)[C@H](CC(=O)O)NC(=O)[C@H](CO)NC(=O)[C@@H](NC(=O)[C@H](Cc1ccccc1)NC(=O)[C@@H](NC(=O)CNC(=O)[C@H](CCC(=O)O)NC(=O)C(C)(C)NC(=O)[C@H](Cc1c[nH]cn1)NC(=O)[C@H](CCNC(=O)CC[C@H](NC(=O)CCCCCCCCCCCCCCC(=O)O)C(=O)O)N(C)C(=O)CN)[C@@H](C)O)[C@@H](C)O)C(C)C)C(=O)N[C@@H](C)C(=O)N[C@@H](Cc1c[nH]c2ccccc12)C(=O)N[C@@H](CC(C)C)C(=O)N[C@H](C(=O)N[C@@H](CCCNC(=N)N)C(=O)NCC(=O)N[C@@H](CCCNC(=N)N)C(=O)NCC(=O)O)C(C)C [Example 12]
